These are literature values, as cited in patent US8569482B2, “Nanoparticulate probe for in vivo monitoring of tissue oxygenation” (priority 2003, dated 2013).

For the data set, the system named is gastrocnemius muscle tissue of C3H mice. The conditions noted are these: mouse, in vivo; cited from earlier work.

As to Lithium naphthalocyanine [LiNc], the stability in tissue result was “only a few days”. Consider Lithium phthalocyanine [LiPc], for which the stability in tissue result is reported as “about 3 weeks”.
